Literature values in patent US20130225597A1, “USE OF PHOSPHODIESTERASE INHIBITOR TO ENHANCE POST-SURGICAL ERECTION IN MEN UNDERGOING RADICAL PROSTATECTOMY” (University of Medicine and Dentistry of New Jersey, priority 2010, published 2013).

Tested on: spinal motor and non-motor neurons
Conditions: cited from earlier work

For `OCCN(CCO)c1nc(N2CCCCC2)c2nc(N(CCO)CCO)nc(N3CCCCC3)c2n1` [dipyridamole], the “protection against acute Reactive Oxygen Species-induced neurotoxicity” value is given as “protect”.
